Compound activity from PubChem BioAssay.
Nrf2 ARE act: Nrf2 pathway activation | AREc32 ARE-luciferase reporter (MCF7-derived line), luminescence, 24 h | Potency, µM (titrated, usually from 46.1 µM), inactives show at the top dose activation, actives largely listed as activators | actives 0.31% (n = 410,000) | AID 624171; also: % of control where 0% means no effect; nearly all actives have a fitted effect of over 65% in size
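Each well held 1000 AREc32 cells, which were incubated with compound for 24 hr at 37 deg C after overnight attachment, and ARE reporter activity was quantified by firefly luciferase luminescence.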
Nrf2 block: Nrf2 pathway inhibition; A549 ARE-Fluc reporter, luciferase luminescence, 18-24 h; Potency, µM (doses to about 46 µM), for inactives: at the highest dose activity change, negative = inhibition, hits mostly inhibitors; actives 2.1% (n = 360,000); also: % is scaled to controls: 0 for no effect and ±100 for the full control effect; nearly all actives have a fitted effect of over 60% in size
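Reporter: ARE-Fluc in A549. Exposure: 18-24 h, 37 °C, 5% CO2, 5% FBS OPTI-MEM. Readouts: fluorescent cytotoxicity (CellTiter-Fluor), then luminescent Nrf2 signal after BugLite.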
Rango release inh: inhibitors of RanGTP-induced Rango-importin beta complex dissociation; AID 540253; actives 0.071% (n = 340,000); O95149+P62826; Biochemical FRET Rango-importin beta, RanGTP-induced dissociation; Potency, µM (series often up to 46.1 µM), without a hit: at the highest dose activity change, negative = inhibition; calls by dose curve; also: % of control where 0% means no effect; nearly all actives have a fitted effect of over 45% in size
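FRET read at 45 min, room temperature: inhibitors block the CFP/YFP signal rise when RanGTP (0.6 uM Ran, 2 mM GTP, 0.2 uM RCC1) frees Rango (0.1 uM) from importin beta (0.25 uM). Pre-read after 5 min compound exposure flags interference.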
A549 tox: kills or reduces viability of A549 cells in Nrf2 counter-screen; actives 0.16% (n = 390,000); AID 504648; Potency, µM (doses to about 46 µM), for inactives: at the highest dose activity change, negative = cytotoxicity, hits mostly inhibitors; A549 ARE-Fluc cells, CellTiter-Fluor viability, 18-24 h; also: % is scaled to controls: 0 for no effect and ±100 for the full control effect
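A549 ARE-Fluc cells in 5% FBS OPTI-MEM, 5000 cells/well, rested 2 h then exposed to compounds in concentration-response for 18-24 h at 37 °C. Viability by CellTiter-Fluor fluorescence (Ex 405/Em 525) after 30 min; luciferase luminescence (BugLite, 15 min, RT) read afterwards.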
Rango-impB inh: prevents formation of the Rango-importin beta complex; Rango CFP/YFP FRET sensor + importin beta, 45 min; AID 540263; actives 0.031% (n = 340,000); Potency, µM (series often up to 92.2 µM), for the others: at the top dose inhibition of complex formation; Q14974; calls by dose curve;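 also: 0% = DMSO wells and 100% = buffer wells lacking importin beta; nearly all actives have a fitted effect of over 15% in size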
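Inhibition scored from the CFP 486 nm/YFP 530 nm FRET ratio 45 min after adding 0.125 microM importin beta to 50 nM Rango biosensor preincubated 5 min with compound (room temperature, PBS with DTT, Tween-20, BSA). No-importin wells as positive control.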
* hit, by the source's call; ? = inconclusive; nt = no result; [ ] = dose if it differs, or a comment. An excerpt weighted towards active compounds, which were near 2.3% of everything screened. Unless noted, calls follow the shape of the dose curve; as a rule, active = well fitted curve in the direction sought with a large enough effect; inconclusive = small, poorly fitted or top-dose-only effect, or another doubt; inactive = no such curve, though single readings can be large; an effect the other way counts as inactive or inconclusive. Potency is read from the fitted curve at half-maximal effect.

1. COc1cc(/C=C2\SC(=S)N(NC(=O)c3ccncc3)C2=O)ccc1O
2. COc1cc(/C=C2\SC(=S)N(NS(=O)(=O)c3ccc(C)cc3)C2=O)ccc1O
3. COc1ccc(C(=O)N(Cc2ccccc2)Cc2ccccc2)cc1COc1ccc(NC(C)=O)cc1
4. CCOn1c(=O)c(=O)n(OCc2ccccc2)c2ccccc21
5. Cc1c(=O)n(OCc2ccccc2)c2ccccc2[n+]1[O-]
6. CCN1C(=O)[C@H]2[C@@H](c3ccc(-c4ccccc4)cc3)N3CCC[C@@]3(C(=O)OC)[C@H]2C1=O
7. CCN1C(=O)[C@@H]2[C@@H](c3ccc(-c4ccccc4)cc3)N3CCC[C@@]3(C(=O)OC)[C@@H]2C1=O
8. COc1nnc(-c2ccc(N3CCCCC3)c(N)c2)c2ccccc12
9. CCOc1ccc(NC(=O)CSc2cc(C)c3ccccc3n2)cc1
10. COCCCn1c(N)c(-c2nc3ccccc3n2C)c2nc3ccccc3nc21
compound no.,1,2,3,4,5,6,7,8,9,10
Rango-impB inh,?,41µM*,nt,-1%,3%,-5%,0%,0%,nt,?
Nrf2 ARE act,0%,1%,nt,22µM*,?,2%,0%,6%,-1%,5%
A549 tox,21µM*,-22%,-13%,-1%,-5%,-2%,-6%,-11%,1%,-16%
Rango release inh,?,?,nt,1%,13%,-9%,-17%,8%,nt,?
Nrf2 block,?,4%,?,nt,nt,15µM*,4%,21µM*,nt,21µM*

11. Nc1ncc(-c2ccccc2)c(-c2ccc(OCc3ccccc3)cc2O)n1
12. CC[C@]12c3[nH]c4ccccc4c3CCN1C(=O)C(CC(=O)NC/C=C(\C)CCC=C(C)C)C[C@@H]2C(=O)N1CCN(C(=O)c2ccco2)CC1 (some centres undefined)
13. C[C@]12c3[nH]c4ccccc4c3CCN1C(=O)C(CC(=O)NCC13CC4CC(CC(C4)C1)C3)C[C@@H]2C(=O)N1CCCCC1 (some centres undefined)
14. CCN(CC)C(=O)[C@H]1CC(CC(=O)NCC23CC4CC(CC(C4)C2)C3)C(=O)N2CCc3c([nH]c4ccc(OC)cc34)[C@]12C (some centres undefined)
15. CCN(CC)C(=O)[C@H]1C[C@H](CC(=O)NCc2cccc(C(F)(F)F)c2)C(=O)N2CCc3c([nH]c4cc(-c5ccco5)ccc34)[C@]12C
16. C[C@]12c3[nH]c4ccccc4c3CCN1C(=O)C(CC(=O)NCC13CC4CC(CC(C4)C1)C3)C[C@@H]2C(=O)N1CCOCC1 (some centres undefined)
17. Cc1ccsc1C(=O)N1CCCC(CO)(Cc2ccccc2F)C1 (centres undefined)
18. CC1CCCCC1NC(=O)COC(=O)c1ccc2c(c1)NC(=O)CS2 (centres undefined)
19. CC(C)=CCC/C(C)=C/CNC(=O)C[C@H]1C[C@H](C(=O)N2CCCCC2)[C@@]2(C)c3[nH]c4cc(CCC(=O)N(C)C)ccc4c3CCN2C1=O
20. CC(C)=CCC/C(C)=C/CNC(=O)C[C@H]1C[C@H](C(=O)N2CCOCC2)[C@@]2(C)c3[nH]c4cc(CCC(=O)N(C)C)ccc4c3CCN2C1=O
compound no.,11,12,13,14,15,16,17,18,19,20
Rango-impB inh,-2%,0%,-1%,4%,1%,1%,-1%,-2%,-4%,0%
Nrf2 ARE act,0%,-1%,-1%,5%,-2%,6%,0%,-1%,1%,7%
A549 tox,-15%,-22%,-13%,-7%,?,0%,1%,4%,-13%,-16%
Rango release inh,2%,14%,1%,-4%,-6%,5%,7%,8%,-10%,0%
Nrf2 block,23µM*,23µM*,16µM*,23µM*,18µM*,-14%,-9%,-4%,?,15µM*

In the list so far, 2 have fluorine.
15. CCN(CC)C(=O)[C@H]1C[C@H](CC(=O)NCc2cccc(C(F)(F)F)c2)C(=O)N2CCc3c([nH]c4cc(-c5ccco5)ccc34)[C@]12C
17. Cc1ccsc1C(=O)N1CCCC(CO)(Cc2ccccc2F)C1 (centres undefined)
compound no.,15,17
Rango-impB inh,1%,-1%
Nrf2 ARE act,-2%,0%
A549 tox,?,1%
Rango release inh,-6%,7%
Nrf2 block,18µM*,-9%

Additional structures.
21. CN(C)C(=O)CCc1ccc2c3c([nH]c2c1)[C@]1(C)[C@@H](C(=O)N2CCOCC2)C[C@H](CC(=O)NCC24CC5CC(CC(C5)C2)C4)C(=O)N1CC3
22. COCCCNC(=O)C[C@H]1C[C@H](C(=O)N2CCCCC2)[C@@]2(CCc3ccccc3)c3[nH]c4cc(-c5ccco5)ccc4c3CCN2C1=O
23. O=C(C[C@H]1C[C@H](C(=O)N2CCCCC2)[C@@]2(CCc3ccccc3)c3[nH]c4cc(-c5ccco5)ccc4c3CCN2C1=O)NCCN1CCOCC1
24. CC(C)N(C(=O)[C@H]1CC(CC(=O)NCC23CC4CC(CC(C4)C2)C3)C(=O)N2CCc3c([nH]c4ccccc34)[C@]12C)C(C)C (some centres undefined)
25. CC(C)N(C(=O)[C@H]1C[C@H](CC(=O)NCC23CC4CC(CC(C4)C2)C3)C(=O)N2CCc3c([nH]c4cc(CCC(=O)N(C)C)ccc34)[C@]12C)C(C)C
26. CCN(CC(=O)NCCc1ccc(S(N)(=O)=O)cc1)Cc1ccccc1
27. Cc1cc(C)c(C)c(S(=O)(=O)N2CCN(CC(=O)c3c(N)n(Cc4ccccc4)c(=O)n(C)c3=O)CC2)c1C
28. CC(C)N(C(=O)[C@H]1C[C@H](CC(=O)NCCC2=CCCCC2)C(=O)N2CCc3c([nH]c4ccc(Cl)cc34)[C@]12C)C(C)C
29. Cc1nc(-c2ccc([S+](=O)([O-])N3CCN([S+](=O)([O-])c4c(F)cccc4F)CC3)s2)cs1
30. O=[N+]([O-])c1ccc(Sc2ncccn2)c([N+](=O)[O-])c1
compound no.,21,22,23,24,25,26,27,28,29,30
Rango-impB inh,7%,?,?,3%,-3%,0%,4%,-3%,nt,-1%
Nrf2 ARE act,4%,3%,-4%,-1%,-1%,-1%,1%,0%,nt,?
A549 tox,1%,-25%,-12%,?,?,2%,?,?,0%,?
Rango release inh,-17%,-14%,-18%,12%,-9%,?,-6%,39%,nt,1%
Nrf2 block,9%,23µM*,-3%,26µM*,21µM*,1%,?,21µM*,4%,23µM*

Complete entries, looked up by structure.
`CCN(CC)C(=O)[C@H]1C[C@H](CC(=O)NCc2cccc(C(F)(F)F)c2)C(=O)N2CCc3c([nH]c4cc(-c5ccco5)ccc34)[C@]12C` is listed with Rango-impB inh = 1%; Nrf2 ARE act = -2%; A549 tox = ?; Rango release inh = -6%; Nrf2 block = 18µM*
`Nc1ncc(-c2ccccc2)c(-c2ccc(OCc3ccccc3)cc2O)n1` is listed with Rango-impB inh = -2%; Nrf2 ARE act = 0%; A549 tox = -15%; Rango release inh = 2%; Nrf2 block = 23µM*

Other structures:
31. O=C(CCl)NCCN1C(=O)S/C(=C\c2cccnc2)C1=O
32. CC(C(=O)NCCN1C(=O)S/C(=C\c2cccnc2)C1=O)N1C(=O)c2ccccc2C1=O (centres undefined)
33. O=C(Cn1[nH]c(=O)c2ccccc2c1=O)NCCN1C(=O)S/C(=C\c2ccccc2)C1=O
34. O=C(Nc1ccc(S(=O)(=O)Nc2nccs2)cc1)c1cnc(Cl)c(Cl)c1
35. N#Cc1cccc(C(=O)Nc2ccc(S(=O)(=O)Nc3nccs3)cc2)c1
36. O=C(Nc1ccc(S(=O)(=O)Nc2ncccn2)cc1)c1cnc(Cl)c(Cl)c1
compound no.,31,32,33,34,35,36
Rango-impB inh,-1%,-2%,-6%,?,?,-2%
Nrf2 ARE act,13µM*,1%,13µM*,9%,0%,6%
A549 tox,-6%,3%,-10%,-2%,3%,-1%
Rango release inh,0%,3%,1%,10µM*[inhibitor],9.2µM*,0%
Nrf2 block,0%,-12%,?,5%,-2%,4%
